Test results taken from paper PMC3674958 (Investigational new drugs, 2012).

Conditions: human, in vivo, 400 mg

AUC0-8h: 4900 ± 2300 ng·h/mL | Cmax: 1190 ± 540 ng/mL
SMILES: CNC(=O)c1cc(Oc2ccc(NC(=O)Nc3ccc(Cl)c(C(F)(F)F)c3)cc2)ccn1 [Sorafenib]
